{"source": "paper PMC4490394", "about": "(Scientific Reports, 2015)", "origin": "cited, not measured here", "system": "testosterone", "conditions": "plasma and bone marrow ref 36; cited from earlier work", "data": [{"smiles": "CNC(=O)c1ccc(N2C(=S)N(c3ccc(C#N)c(C(F)(F)F)c3)C(=O)C2(C)C)cc1F", "note": "[Enzalutamide, enzalutamide, reference compound]", "values": [{"measurement": "testosterone levels in treated CRPC patients", "value": "increased levels of testosterone in plasma and bone marrow"}]}]}
